For this assay, the system named is HeLa. In words: Cytotoxicity against human HeLa cells after 48 hrs […]. It counts as functional, cell-based.

Here are results for 1 molecule from ChEMBL document CHEMBL2046392, “Synthesis and evaluation of carbocyanine dyes as PRMT inhibitors and imaging agents” (Eur J Med Chem, 2012).

Usually EC50 stands for the concentration at which the effect is half-maximal. Molecule `CCn1/c(=C\C=C\C2=[N+](CC)c3cccc4cccc2c34)c2cccc3cccc1c32.[I-]` displayed an EC50 of 940 nM.
